This is a selection; strong and weak results do not stand in their true shares. Results filed as inconclusive are left out. The source made the active and inactive calls. Calls follow the shape of the dose curve; as a rule, active = well fitted inhibition curve with a large enough effect; inconclusive = small, poorly fitted or top-dose-only effect; inactive = no such curve, though single readings can be large or run the other way.
Potency is read from the fitted curve at half-maximal effect.

The nature of this assay: qHTS for Inhibitors of TGF-b: Confirmation of Cherry Picks. Also: nearly all actives have a fitted effect of over 65% in size. The conditions noted are these: HepG2 CAGA-GFP TGF-b reporter, GFP fluorescence, 18 h; cells stimulated with TGF-beta, 500 pg/mL. The text has this: TGF-b is a main component in the TGF-b signaling pathway which plays diverse roles in cellular and development pathways. TGF-b is mediated through transcription factors called "Smads". Although the Smad-dependent pathway is the primary canonical TGF-b signaling mode, TGF-b1 can also activate alternative signaling pathways, including those involving MAPK (ERK, JNK and p38). This interaction may mediate or enhance Smad-dependent responses, or can exert Smad-independent effects. The complexity of this signaling cascade allows the TGF-b superfamily to perform unique, overlapping or redundant functions. […] We aim to identify Smad3-small molecule antagonists using a quantitative high throughput screening (qHTS) approach. […]
Suspensions of trypsinized HEPG2 CAGA-GFP cells were dispensed into white, tissue culture-treated, solid 1536-well plates at 5uL/well (1000 cells/well final concentration) in DMEM medium supplemented with 1% FBS. […] The plates were measured on an Acumen eX3 Explorer plate reader for GFP fluorescence (ex488/em500-530). GFP values were calculated by determining the mean GFP fluorescence of individual cells, and compiling these values for each well to determine a total well GFP signal. The %Activity was determined from the corrected fluorescence values. […] Concentration-response curves were fitted to the signals arising from the resulting fluorescence. […]
On the technique in general: qHTS replaces the single test concentration by a dilution series.
Turning to `O=c1c2cc([N+](=O)[O-])ccc2[nH]c2c([N+](=O)[O-])cc([N+](=O)[O-])cc12`, the Potency was active: 0.58 µM.

(Values after PubChem BioAssay AID720534 (National Center for Advancing Translational Sciences (NCATS), 2013).)
